This test is described as follows: Binding affinity to Mycobacterium smegmatis ClpC assessed as dissociation constant by MicroCal PEAQ-ITC instrument analysis.

`CC(=O)N[C@@H](CCCNC(=N)NP(=O)(O)O)C(=O)NCCOCCOCCC(=O)NCCOCCOCCC(=O)NCCOCCOCCC(=O)N[C@@H](CCCCNC(=O)CCCC[C@@H]1SC[C@@H]2NC(=O)N[C@@H]21)C(N)=O`: the Kd worked out at 2800 nM.

By Kd is commonly meant the equilibrium constant for the complex coming apart.

The record behind these values is ChEMBL document CHEMBL5214967, “Natural Product-Inspired Targeted Protein Degraders: Advances and Perspectives” (J Med Chem, 2022).
